# Apparent affinities of Ab-14 variants for a coronavirus HR2 peptide

Values reported by Engelhart et al. 2022, doi:10.1038/s41597-022-01779-4 (FLAb copy).

Target: peptide PDVDLGDISGINAS, taken from heptad repeat 2 (HR2) of SARS-CoV-2 spike.

The variants keep the heavy chain, the linker and the frameworks of Ab-14 (scFv order VH, the linker GGGGSGGGGSGGGGS, VL).
VH: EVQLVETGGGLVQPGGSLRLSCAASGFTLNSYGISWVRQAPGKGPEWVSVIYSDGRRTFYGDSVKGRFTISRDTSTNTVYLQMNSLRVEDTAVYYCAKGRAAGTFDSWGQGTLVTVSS
VL: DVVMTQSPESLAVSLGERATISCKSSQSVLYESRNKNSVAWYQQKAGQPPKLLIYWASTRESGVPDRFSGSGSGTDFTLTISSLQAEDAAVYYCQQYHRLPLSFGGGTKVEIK

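The parent was found by panning a naive human phage display library on the peptide. AAYL50 was designed without a model: most single CDR substitutions and a random sample of double and triple ones. The assay is AlphaSeq: two haploid yeast populations carry antibody and antigen on their surface. Binding brings cells together so that they mate, and sequencing counts the barcode pairs among the diploids. Each replicate has its own calibration line, from reference interactions of the BCL2 family. Mating was done three times.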

Positions count from residue 1 of the parent VL; Q96F puts F in place of Q.
Scale: log10 of Kd in nM, estimated from mating counts; low values are strong binders.
Replicates are averaged; those with no signal do not enter the mean.
Where no diploid with the target was found in that replicate, the entry reads "n.d.": below detection, most likely a poor binder, though not proof of it.
As a blank, each scFv also met three strains without target: over library AAYL50, 18% of these pairings were detected, typically at 4.19 and seldom below 2.99. The control count says in how many pairings with the empty strains this scFv gave a signal, with their mean in brackets.
Parent in this assay: reference entry 0.65, copy in this library 1.68.

changes,"replicates, log10 nM","mean, log10 nM",signal with controls
Q96F/L100W/L102F,1.59 1.20 1.28,1.35,5 of 9 (4.23)
K24I/E32T/N37E,n.d. n.d. n.d.,n.d.,1 of 9 (2.82)
S25D/H98W/P101E,1.09 1.33 1.52,1.31,1 of 9 (3.13)
N35Q/Q95V,n.d. n.d. n.d.,n.d.,1 of 9 (3.70)
S33D/N37L/L100G,n.d. n.d. n.d.,n.d.,0 of 9
V39F/R60E/E61H,4.54 n.d. 4.55,4.55,2 of 9 (4.72)
V29S/S62Y/L102M,1.57 1.68 1.97,1.74,0 of 9
R34F/T59L/S103N,1.15 1.23 1.45,1.28,3 of 9 (4.23)
A57V/R60E/Y97G,n.d. 3.82 n.d.,3.82,3 of 9 (4.53)
S25I/S26T/E61N,-0.12 0.25 0.19,0.11,2 of 9 (4.70)
K36T/L100R/P101T,n.d. n.d. n.d.,n.d.,1 of 9 (4.04)
E61W/S62F/L100D,n.d. n.d. 4.61,4.61,1 of 9 (3.76)
K24Q/S38H/S62E,1.20 1.21 1.42,1.28,1 of 9 (3.38)
S25L/S33N/N35P,0.81 0.82 0.87,0.84,2 of 9 (4.03)
Y31G/A57I/P101R,n.d. n.d. n.d.,n.d.,0 of 9
S25E/S38Q,1.19 1.09 1.30,1.19,0 of 9
S28P/E32L,n.d. n.d. n.d.,n.d.,2 of 9 (4.05)
S38Y/P101C/L102Y,n.d. n.d. n.d.,n.d.,0 of 9
K24M/Q27F,1.83 1.70 1.82,1.78,3 of 9 (3.60)
S28M/V39H/P101V,n.d. n.d. n.d.,n.d.,0 of 9
S28K/L30K/S103C,1.19 1.44 1.44,1.36,0 of 9
S28D/Y31M/S38V,n.d. 4.40 n.d.,4.40,2 of 9 (4.35)
S28K/N35F/L100S,5.83 5.06 n.d.,5.44,0 of 9
S58M/P101D,2.02 2.05 2.04,2.04,6 of 9 (4.53)
Q27C/S28A/V29D,0.75 0.82 0.83,0.80,0 of 9
R34F/A57V/Q95P,n.d. n.d. n.d.,n.d.,0 of 9
R60H/L100K/P101C,n.d. n.d. n.d.,n.d.,1 of 9 (3.82)
L30M/W56Y/A57K,1.22 1.24 1.51,1.32,0 of 9
S28P/S38H/E61C,2.13 2.01 1.94,2.03,2 of 9 (3.48)
S26T/N35V,1.46 1.33 1.16,1.32,1 of 9 (4.59)
K24I/S33Q/W56N,0.79 1.06 0.97,0.94,2 of 9 (4.52)
R34W/R99W/L100I,n.d. n.d. 3.70,3.70,2 of 9 (4.09)
S25A/V29T/S62N,0.95 1.17 0.92,1.01,0 of 9
S28V/R99V,n.d. 2.41 3.98,3.20,0 of 9
S26K/V29W/S103M,0.59 1.11 1.00,0.90,2 of 9 (4.11)
K36P/S38A/L102D,1.10 1.40 1.41,1.30,3 of 9 (4.15)
S25I/S58Q,-0.32 0.03 -0.20,-0.16,0 of 9
L30F/K36I/W56D,1.59 1.68 1.88,1.72,0 of 9
S26T/L30E/P101S,1.74 1.42 1.25,1.47,0 of 9
Q27G/N35G/N37C,1.66 1.52 1.69,1.62,0 of 9
S26Y/A40W/S103N,n.d. n.d. 4.62,4.62,0 of 9
V29M/Y31I/R34G,0.60 0.79 0.63,0.67,2 of 9 (4.14)
S26A/A40V/L100S,n.d. n.d. n.d.,n.d.,0 of 9
N35M/A40S/H98R,4.75 n.d. n.d.,4.75,4 of 9 (4.58)
A40G/Y97D/S103P,n.d. 4.21 4.17,4.19,2 of 9 (5.87)
R34L/Y97N/L102A,0.86 1.03 1.05,0.98,1 of 9 (5.12)
A40Q/R60F/L100F,4.63 4.52 n.d.,4.57,5 of 9 (5.06)

Excerpt, the final 8 entries:

changes,"replicates, log10 nM","mean, log10 nM",signal with controls
Q27G/N35G/N37C,1.66 1.52 1.69,1.62,0 of 9
S26Y/A40W/S103N,n.d. n.d. 4.62,4.62,0 of 9
V29M/Y31I/R34G,0.60 0.79 0.63,0.67,2 of 9 (4.14)
S26A/A40V/L100S,n.d. n.d. n.d.,n.d.,0 of 9
N35M/A40S/H98R,4.75 n.d. n.d.,4.75,4 of 9 (4.58)
A40G/Y97D/S103P,n.d. 4.21 4.17,4.19,2 of 9 (5.87)
R34L/Y97N/L102A,0.86 1.03 1.05,0.98,1 of 9 (5.12)
A40Q/R60F/L100F,4.63 4.52 n.d.,4.57,5 of 9 (5.06)